Results published in PubChem BioAssay AID651658 (Broad Institute, 2012).
The list shows a part of the results, in another mix than the full data. Activity calls are given as the source filed them.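 Rule for the calls: active = mean Tm shift, scaled 0 neutral to 100 positive control, at about 1.3% or above, every replicate too (limit read from the data); inconclusive = no clear call, values can overlap the other calls; inactive = the rest.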

Protein sequences, listed by entry. Tags and fused reporters are not part of them.
UniProt Q9HCT0, whole entry: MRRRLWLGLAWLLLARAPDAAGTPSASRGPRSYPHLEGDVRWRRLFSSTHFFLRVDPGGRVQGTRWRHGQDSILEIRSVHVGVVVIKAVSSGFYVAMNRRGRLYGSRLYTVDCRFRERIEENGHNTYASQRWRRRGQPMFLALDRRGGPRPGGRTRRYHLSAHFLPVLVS

Target: Fibroblast growth factor 22 (Homo sapiens) (UniProt Q9HCT0)
Assay: FGF22 ligand-induced thermal stabilization – biophysical, thermal shift, single point, FGF22 synaptogenesis inhibitor project, primary screen (AID 651658)
Conditions: recombinant FGF22 thermal shift, SYPRO orange fluorescence; at 9.99 µM; stronger effect = higher value; percent of sucrose octasulfate shift, DMSO zero

| Compound | activity (Tm shift, normalised) |
| --- | --- |
| CCCCn1nnnc1C(c1cccs1)N1CCC(n2c(=O)[nH]c3ccccc32)CC1 (stereo not drawn) | inactive: 0.533% |
| O=C(NCC1(N2CCCCC2)CCCCC1)c1cccs1 | inactive: -0.563% |
| CCCCn1nnnc1C(CC)N1CCC(n2c(=O)[nH]c3ccccc32)CC1 (stereo not drawn) | inactive: 0.058% |
| COc1cc(C(=O)NCC2(N(C)C)CCCCC2)ccc1OC(F)F | inactive: -0.127% |
| CCOC(=O)N1CCC(Nc2cccc(C)c2)CC1 | inactive: -0.265% |
| O=c1[nH]c2ccccc2n1C1CCN(C(c2cccc3ccccc23)c2nnnn2C2CCCC2)CC1 (stereo not drawn) | inactive: -0.222% |
| O=c1[nH]c2ccccc2n1C1CCN(C(c2ccccc2)c2nnnn2C2CCCCC2)CC1 (stereo not drawn) | inactive: -0.612% |
| O=C(NCC1(N2CCCCC2)CCCCC1)c1ccc(F)cc1 | inactive: -0.314% |
| CCCCOc1ccc(C(=O)NCC2(N3CCOCC3)CCCCC2)cc1 | inactive: -0.274% |
| CCCCn1nnnc1C(c1cc2ccccc2o1)N1CCC(n2c(=O)[nH]c3ccccc32)CC1 (stereo not drawn) | inactive: 0.353% |
| O=P1(N(CCCl)CCCl)SCCCS1 | inactive: 0.147% |
| CCOC(=O)N1CCC(Nc2ccc(F)cc2)CC1 | inactive: 0.044% |
| CC(C)(C)n1nnnc1C(c1ccccc1)N1CCC(n2c(=O)[nH]c3ccccc32)CC1 (stereo not drawn) | inactive: 0.001% |
| O=C1CCN(Cc2ccccc2)CC1 | inactive: 0.274% |
| CCOc1ccc(C)cc1CN(CCCl)CCCl | inactive: 0.275% |
| COc1cc(C(=O)NCC2(N3CCCCC3)CCCCC2)ccc1OC(F)F | inactive: -0.076% |
| CCCCn1nnnc1C(c1cccc2ccccc12)N1CCC(n2c(=O)[nH]c3ccccc32)CC1 (stereo not drawn) | inactive: -0.126% |
| CC(C)c1ccc(C(=O)NCC2(N3CCOCC3)CCCCC2)cc1 | inactive: -0.422% |
| COc1ccc(NC2CCN(C(=O)OC(C)(C)C)CC2)cc1 | inactive: 0.287% |

| Compound | activity (Tm shift, normalised) |
| --- | --- |
| CN1CCN(CCOC(=O)C(O)(c2ccccc2)c2ccccc2)CC1 | inactive: -0.444% |
| O=C(NCC1(N2CCCCC2)CCCCC1)c1cccc(C(F)(F)F)c1 | inactive: 0.055% |
| CCN1CCC(Nc2ccc(Cl)cc2)CC1 | inactive: -0.3% |
| O=c1[nH]c2ccccc2n1C1CCN(C(c2ccccc2OC(F)(F)F)c2nnnn2C2CCCC2)CC1 (stereo not drawn) | inactive: -0.349% |
| O=C(NCC1(N2CCCCC2)CCCCC1)c1cccc([N+](=O)[O-])c1 | inactive: 0.106% |
| CSc1ccc(C(=O)NCC2(N3CCOCC3)CCCCC2)cc1 | inactive: -0.194% |
| CC(C)(C)n1nnnc1C(c1ccccc1OC(F)(F)F)N1CCC(n2c(=O)[nH]c3ccccc32)CC1 (stereo not drawn) | inactive: -0.222% |
| O=C(NCC1(N2CCCCC2)CCCCC1)c1ccc(OC(F)F)cc1 | inactive: 0.208% |
| COc1ccc(C(c2nnnn2C2CCCC2)N2CCC(n3c(=O)[nH]c4ccccc43)CC2)cc1 (stereo not drawn) | inactive: -0.287% |
| Cc1ccc(C(=O)NCC2(N(C)C)CCCCC2)o1 | inactive: -0.312% |
| CCCOc1ccc(C(=O)NCC2(N(C)C)CCCCC2)cc1OC | inactive: -0.264% |
| O=C(NCC1(N2CCCCC2)CCCCC1)c1cncc(Br)c1 | inactive: 0.103% |
| CN1CCC(Nc2cccc(F)c2)CC1 | inactive: 0.122% |
| COc1cc(OC)c(C(=O)NCC2(N(C)C)CCCCC2)cc1OC | inactive: 0.272% |
| CCC(c1nnnn1C(C)(C)C)N1CCC(n2c(=O)[nH]c3ccccc32)CC1 (stereo not drawn) | inactive: 1.22% |
| O=C(NCC1(N2CCOCC2)CCCCC1)c1cc(F)c(F)cc1Cl | inactive: -0.067% |
| CCCCn1nnnc1C(c1ccnc2ccccc12)N1CCC(n2c(=O)[nH]c3ccccc32)CC1 (stereo not drawn) | inactive: 0.267% |
| CC(C)c1ccc(NC2CCN(C(=O)OC(C)(C)C)CC2)cc1 | inactive: 0.665% |
| CN(C)c1cccc(C(=O)NCC2(N3CCCCC3)CCCCC2)c1 | inactive: 0.031% |
